The term inhibition denotes the change of the read-out against control, counted positive when it falls.

Amino acid sequences for entries named in this document (tags omitted).
UniProt P28562, whole entry: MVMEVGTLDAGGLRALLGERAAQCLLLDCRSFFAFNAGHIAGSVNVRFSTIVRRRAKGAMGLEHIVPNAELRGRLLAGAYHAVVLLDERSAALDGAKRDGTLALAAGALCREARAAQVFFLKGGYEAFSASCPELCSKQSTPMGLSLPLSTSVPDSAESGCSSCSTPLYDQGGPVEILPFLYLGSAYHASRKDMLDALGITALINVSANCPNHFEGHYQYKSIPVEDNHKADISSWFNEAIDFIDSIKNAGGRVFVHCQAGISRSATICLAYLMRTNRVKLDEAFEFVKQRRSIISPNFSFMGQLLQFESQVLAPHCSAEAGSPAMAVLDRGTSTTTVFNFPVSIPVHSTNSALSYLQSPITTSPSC

This note sets out measurements from PubChem BioAssay AID374 (University of Pittsburgh Molecular Library Screening Center, 2006).

Each structure is given as a SMILES string. The list shows a part of the results, in another mix than the full data. Calls of active or inactive are those of the source.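 Rule for the calls: active = inhibition above about 50% (limit read from the data); inconclusive = inhibition over screen mean plus 3 SD, below that limit; inactive = the rest.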

The target of this assay is Dual specificity protein phosphatase 1 (Homo sapiens) (UniProt P28562). Briefly: MKP-1 phosphatase inhibitors, primary screen, biochemical, in vitro (AID 374).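 Note: 0% = DMSO max control wells and 100% = wells with enzyme stopped by NaOH.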 The settings on record: recombinant MKP-1, OMFP hydrolysis fluorescence; active compounds read high;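 compounds tested at a single concentration somewhere between 10 and 100 µM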.
With `N/C(=N\O)c1c(N)no[n+]1[O-]`, the inhibition is inactive: -11.5%.

In the case of `Fc1ccccc1NC1CCN(Cc2ccccc2)CC1`, the inhibition is inactive: 6.08%.

Regarding `CCC(CO)(C(=O)OC1CN2CCC1CC2)c1ccccc1` (configuration not stated), the inhibition is inactive: 6.42%.

As for `CCOc1ncccc1C(=O)NCC1(N2CCOCC2)CCCCC1`, the inhibition is inactive: 1.48%.

Consider `O=C(OC1CN2CCC1CC2)C1c2ccccc2Oc2ccccc21` (configuration not stated), for which the inhibition is inactive: -5.12%.

Turning to `COc1ccc(NC2CCN(CCc3ccccc3)CC2)c(OC)c1`, the inhibition is inactive: -15.2%.

For `N#CC1(Nc2ccccc2)CCN(CCc2ccccc2)CC1`, the inhibition was inactive: 4.35%.
